{"sequences": {"note": "Amino acid sequences for entries named in this document (tags omitted). A change or cut given only in a name is not applied to a line headed by its entry.", "UniProt P31391": "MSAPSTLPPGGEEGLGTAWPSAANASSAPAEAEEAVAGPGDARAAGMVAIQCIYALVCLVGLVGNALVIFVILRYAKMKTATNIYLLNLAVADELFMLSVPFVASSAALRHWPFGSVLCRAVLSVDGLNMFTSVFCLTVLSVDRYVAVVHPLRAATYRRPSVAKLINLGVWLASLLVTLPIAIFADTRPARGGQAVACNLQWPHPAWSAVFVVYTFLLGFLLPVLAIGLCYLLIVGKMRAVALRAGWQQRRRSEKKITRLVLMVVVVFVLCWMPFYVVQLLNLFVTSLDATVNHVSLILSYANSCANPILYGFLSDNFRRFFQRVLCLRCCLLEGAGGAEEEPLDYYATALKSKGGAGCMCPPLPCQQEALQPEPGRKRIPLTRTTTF", "UniProt P35346": "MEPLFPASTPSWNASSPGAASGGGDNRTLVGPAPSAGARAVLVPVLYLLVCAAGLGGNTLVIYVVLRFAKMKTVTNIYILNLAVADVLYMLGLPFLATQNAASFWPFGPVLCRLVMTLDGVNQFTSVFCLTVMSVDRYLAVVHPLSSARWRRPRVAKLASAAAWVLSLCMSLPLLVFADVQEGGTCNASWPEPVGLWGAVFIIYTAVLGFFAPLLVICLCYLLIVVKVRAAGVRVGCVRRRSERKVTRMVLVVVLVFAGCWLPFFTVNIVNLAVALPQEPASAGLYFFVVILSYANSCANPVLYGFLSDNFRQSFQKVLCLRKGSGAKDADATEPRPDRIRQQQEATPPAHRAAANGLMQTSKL", "UniProt P32745": "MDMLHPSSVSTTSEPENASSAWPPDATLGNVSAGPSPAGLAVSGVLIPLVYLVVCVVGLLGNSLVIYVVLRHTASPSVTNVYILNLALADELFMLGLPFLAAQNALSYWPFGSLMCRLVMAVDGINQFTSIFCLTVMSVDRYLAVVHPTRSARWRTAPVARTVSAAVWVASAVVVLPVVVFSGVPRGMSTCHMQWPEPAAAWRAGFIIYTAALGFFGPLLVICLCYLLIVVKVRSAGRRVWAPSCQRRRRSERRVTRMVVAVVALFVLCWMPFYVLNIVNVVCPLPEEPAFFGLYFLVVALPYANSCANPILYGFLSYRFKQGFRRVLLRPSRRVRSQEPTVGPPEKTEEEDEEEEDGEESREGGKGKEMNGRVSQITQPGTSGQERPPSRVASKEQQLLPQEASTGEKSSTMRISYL", "UniProt P30872": "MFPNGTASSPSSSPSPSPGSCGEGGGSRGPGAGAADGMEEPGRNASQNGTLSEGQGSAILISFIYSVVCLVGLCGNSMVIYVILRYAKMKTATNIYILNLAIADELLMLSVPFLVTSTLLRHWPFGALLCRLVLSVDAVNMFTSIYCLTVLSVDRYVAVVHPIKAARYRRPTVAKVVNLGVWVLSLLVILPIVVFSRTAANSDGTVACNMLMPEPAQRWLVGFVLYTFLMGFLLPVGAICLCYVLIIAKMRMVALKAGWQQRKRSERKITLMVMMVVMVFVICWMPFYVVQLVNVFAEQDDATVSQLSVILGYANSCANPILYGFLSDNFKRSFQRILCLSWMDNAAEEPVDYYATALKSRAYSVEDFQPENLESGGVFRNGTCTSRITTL", "UniProt P30874": "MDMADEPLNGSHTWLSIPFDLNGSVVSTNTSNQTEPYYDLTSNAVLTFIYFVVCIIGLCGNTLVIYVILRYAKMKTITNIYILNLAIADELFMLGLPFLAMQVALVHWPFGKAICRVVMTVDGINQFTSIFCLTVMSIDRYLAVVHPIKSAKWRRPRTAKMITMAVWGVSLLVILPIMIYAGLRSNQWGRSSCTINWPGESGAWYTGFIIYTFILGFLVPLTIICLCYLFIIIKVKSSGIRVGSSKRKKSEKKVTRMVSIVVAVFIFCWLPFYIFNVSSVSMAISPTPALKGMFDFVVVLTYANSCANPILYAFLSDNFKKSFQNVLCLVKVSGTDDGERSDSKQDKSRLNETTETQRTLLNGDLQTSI", "UniProt Q99705": "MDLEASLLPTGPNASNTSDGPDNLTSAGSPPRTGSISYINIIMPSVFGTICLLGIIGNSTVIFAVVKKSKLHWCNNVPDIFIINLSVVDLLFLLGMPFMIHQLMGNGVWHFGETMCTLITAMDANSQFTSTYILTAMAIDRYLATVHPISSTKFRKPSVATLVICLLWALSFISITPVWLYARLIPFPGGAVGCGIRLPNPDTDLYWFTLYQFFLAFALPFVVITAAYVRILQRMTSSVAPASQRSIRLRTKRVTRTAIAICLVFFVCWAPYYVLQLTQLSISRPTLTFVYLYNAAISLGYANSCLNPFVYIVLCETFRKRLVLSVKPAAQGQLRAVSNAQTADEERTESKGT", "UniProt P33032": "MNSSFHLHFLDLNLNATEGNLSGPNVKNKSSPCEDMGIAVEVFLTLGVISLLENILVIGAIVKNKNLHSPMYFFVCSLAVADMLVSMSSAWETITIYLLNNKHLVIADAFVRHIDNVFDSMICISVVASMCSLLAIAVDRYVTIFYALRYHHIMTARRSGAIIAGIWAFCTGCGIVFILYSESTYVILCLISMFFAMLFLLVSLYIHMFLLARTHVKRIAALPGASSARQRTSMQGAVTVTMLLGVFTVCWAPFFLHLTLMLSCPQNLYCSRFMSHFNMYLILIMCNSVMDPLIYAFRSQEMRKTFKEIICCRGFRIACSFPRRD", "UniProt P32245": "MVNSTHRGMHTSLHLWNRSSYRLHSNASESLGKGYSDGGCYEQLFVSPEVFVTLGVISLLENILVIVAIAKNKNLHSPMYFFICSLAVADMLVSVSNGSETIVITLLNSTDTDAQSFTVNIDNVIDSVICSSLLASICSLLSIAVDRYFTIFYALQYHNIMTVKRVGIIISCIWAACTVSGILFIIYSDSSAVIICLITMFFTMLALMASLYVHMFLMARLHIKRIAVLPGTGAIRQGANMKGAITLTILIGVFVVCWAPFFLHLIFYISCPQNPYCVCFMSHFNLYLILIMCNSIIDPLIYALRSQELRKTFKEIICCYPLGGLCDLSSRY", "UniProt P41968": "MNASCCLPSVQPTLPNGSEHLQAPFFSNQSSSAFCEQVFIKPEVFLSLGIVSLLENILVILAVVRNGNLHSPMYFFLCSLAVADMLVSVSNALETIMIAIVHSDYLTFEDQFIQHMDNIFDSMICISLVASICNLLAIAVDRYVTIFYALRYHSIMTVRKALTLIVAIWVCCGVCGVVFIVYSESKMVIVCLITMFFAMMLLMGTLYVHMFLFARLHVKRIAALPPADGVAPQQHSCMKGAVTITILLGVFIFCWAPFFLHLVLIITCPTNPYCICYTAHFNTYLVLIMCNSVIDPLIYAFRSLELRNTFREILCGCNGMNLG"}, "source": "patent US7115708B2", "about": "(priority 2001, dated 2006)", "origin": "cited, not measured here", "key": {"h-SSTR4": {"molecular_target": "h-SSTR4 (Homo sapiens, UniProt P31391)", "settings": "cited from earlier work"}, "h-SSTR5": {"molecular_target": "h-SSTR5 (Homo sapiens, UniProt P35346)", "settings": "cited from earlier work"}, "h-SSTR3": {"molecular_target": "h-SSTR3 (Homo sapiens, UniProt P32745)", "settings": "cited from earlier work"}, "h-SSTR1": {"molecular_target": "h-SSTR1 (Homo sapiens, UniProt P30872)", "settings": "cited from earlier work"}, "h-SSTR2": {"molecular_target": "h-SSTR2 (Homo sapiens, UniProt P30874)", "settings": "cited from earlier work"}, "MCH (h)": {"molecular_target": "MCH (h) (Homo sapiens, UniProt Q99705)", "settings": "read-out: Kd of the radioligand (historical value); Human recombinant CHO cells; cited from earlier work"}, "Melanocortin MC5": {"molecular_target": "Melanocortin MC5 (Homo sapiens, UniProt P33032)", "settings": "read-out: Kd of the radioligand (historical value); Human recombinant HEK-293 cells; cited from earlier work"}, "Melanocortin MC4": {"molecular_target": "Melanocortin MC4 (Homo sapiens, UniProt P32245)", "settings": "read-out: Kd of the radioligand (historical value); Human recombinant HEK-293 cells; cited from earlier work"}, "Melanocortin MC1": {"test_system": "Melanocortin MC1", "settings": "read-out: Kd of the radioligand (historical value); Human recombinant CHO cells; cited from earlier work"}, "Melanocortin MC3": {"molecular_target": "Melanocortin MC3 (Homo sapiens, UniProt P41968)", "settings": "read-out: Kd of the radioligand (historical value); Human recombinant HEK-293 cells; cited from earlier work"}, "Somatostatin sst1": {"molecular_target": "Somatostatin sst1 (Homo sapiens, UniProt P30872)", "settings": "read-out: Kd of the radioligand (historical value); Human recombinant CHO-K1; cited from earlier work"}, "Somatostatin sst2": {"molecular_target": "Somatostatin sst2 (Homo sapiens, UniProt P30874)", "settings": "read-out: Kd of the radioligand (historical value); Human recombinant CHO-K1; cited from earlier work"}, "Somatostatin sst3": {"molecular_target": "Somatostatin sst3 (Homo sapiens, UniProt P32745)", "settings": "read-out: Kd of the radioligand (historical value); Human recombinant CHO-K1; cited from earlier work"}, "Somatostatin sst5": {"molecular_target": "Somatostatin sst5 (Homo sapiens, UniProt P35346)", "settings": "read-out: Kd of the radioligand (historical value); Human recombinant HEK-293 EBNA cells; cited from earlier work"}, "Somatostatin sst4": {"molecular_target": "Somatostatin sst4 (Homo sapiens, UniProt P31391)", "settings": "read-out: Kd of the radioligand (historical value); Human recombinant CHO-K1; cited from earlier work"}}, "data": [{"substance": "^111In-DTPA-DPhe1-octreotide", "values": [{"measurement": "binding to h-SSTR4 (in words)", "setting": "h-SSTR4", "value": "does not bind"}, {"measurement": "Kd", "setting": "h-SSTR5; high affinity", "value": "0.1 to 5", "unit": "nM"}, {"measurement": "Kd", "setting": "h-SSTR3; moderate affinity", "value": "10 to 100", "unit": "nM"}, {"measurement": "binding to h-SSTR1 (in words)", "setting": "h-SSTR1", "value": "does not bind"}, {"measurement": "Kd", "setting": "h-SSTR2; high affinity", "value": "0.1 to 5", "unit": "nM"}]}, {"substance": "^111In/^90Y-DOTA-lanreotide", "values": [{"measurement": "binding to h-SSTR4 (in words)", "setting": "h-SSTR4", "value": "high affinity"}, {"measurement": "binding to h-SSTR5 (in words)", "setting": "h-SSTR5", "value": "high affinity"}, {"measurement": "binding to h-SSTR3 (in words)", "setting": "h-SSTR3", "value": "high affinity"}, {"measurement": "Kd", "setting": "h-SSTR1; lower affinity", "value": 200, "unit": "nM"}, {"measurement": "binding to h-SSTR2 (in words)", "setting": "h-SSTR2", "value": "high affinity"}]}, {"substance": "^125I [Phe^13, Tyr^19]-MCH", "values": [{"measurement": "Kd", "setting": "MCH (h)", "value": 0.05, "unit": "nM"}]}, {"substance": "^125I NDP-αMSH", "values": [{"measurement": "Kd", "setting": "Melanocortin MC5", "value": 0.53, "unit": "nM"}, {"measurement": "Kd", "setting": "Melanocortin MC4", "value": 0.5, "unit": "nM"}, {"measurement": "Kd", "setting": "Melanocortin MC1", "value": 0.62, "unit": "nM"}, {"measurement": "Kd", "setting": "Melanocortin MC3", "value": 0.53, "unit": "nM"}]}, {"substance": "^125I Somatostatin-14", "values": [{"measurement": "Kd", "setting": "Somatostatin sst1", "value": 1.9, "unit": "nM"}, {"measurement": "Kd", "setting": "Somatostatin sst2", "value": 0.034, "unit": "nM"}, {"measurement": "Kd", "setting": "Somatostatin sst3", "value": 0.79, "unit": "nM"}, {"measurement": "Kd", "setting": "Somatostatin sst5", "value": 0.5, "unit": "nM"}, {"measurement": "Kd", "setting": "Somatostatin sst4", "value": 0.87, "unit": "nM"}]}]}
